# Assay results: US8039468B2, “Method of inhibition of respiratory depression using positive allosteric AMPA receptor modulators” (The Governors of the University of Alberta, priority 2006, dated 2011)
# Tests used:
# rats = assay: Thermal nociception, hind paw withdrawal test; type: in vivo, rat; conditions: CX546 16 mg/kg or naloxone 1 mg/kg i.p.
# XII motorneuron = conditions: compound in bathing medium, TTX present
# Sprague-Dawley rat = assay: Whole-body plethysmography of frequency and depth of breathing in unrestrained rats
# [1] = P17 rat, fentanyl 130 μg/kg i.p., then Compound A 33 mg/kg or CX614 2.5 mg/kg
Molecule,"Latency (s), hind paw withdrawal (rats; Adult (2-3 months), post-administration of fentanyl 130 μg/kg) [s]","Latency (s), hind paw withdrawal (rats; Newborn (P1-P2), post-administration of fentanyl 60 μg/kg) [s]",fentanyl-induced analgesia after subsequent administration of the drug (rats; newborn and adult rats),increase of amplitude of glutamate-induced inward currents (XII motorneuron) [fold],"behaviour or arousal state (spontaneous movement, agitation, sedation) (Sprague-Dawley rat; P17 rat after fentanyl 130 μg/kg, Compound A 33 mg/kg or CX614 2.5 mg/kg i.p.)",fentanyl-induced respiratory depression (Sprague-Dawley rat; [1]),persistence of enhancement of respiratory rhythm (Sprague-Dawley rat; [1]),time to reversal of fentanyl-induced respiratory depression (Sprague-Dawley rat; [1])
C=CCN1CC[C@]23c4c5ccc(O)c4O[C@H]2C(=O)CC[C@@]3(O)[C@H]1C5,4.8 ± 1.9,4.0 ± 3.1,blocked,,,,,
"2H,3H,6aH-pyrrolidinol[2″,1″-3′,2′]1,3-oxazino[6′,5′-5,4]benzo[e]1 ,4-dioxan-10-one",,,,2,without any obvious effect,reversed,at least 1 hour,within minutes
